The chains behind the UniProt entries cited, without tags or fusion partners. Where a name states a change or a piece, a line headed by the entry shows the natural chain unless it says otherwise.
UniProt P31424, whole entry: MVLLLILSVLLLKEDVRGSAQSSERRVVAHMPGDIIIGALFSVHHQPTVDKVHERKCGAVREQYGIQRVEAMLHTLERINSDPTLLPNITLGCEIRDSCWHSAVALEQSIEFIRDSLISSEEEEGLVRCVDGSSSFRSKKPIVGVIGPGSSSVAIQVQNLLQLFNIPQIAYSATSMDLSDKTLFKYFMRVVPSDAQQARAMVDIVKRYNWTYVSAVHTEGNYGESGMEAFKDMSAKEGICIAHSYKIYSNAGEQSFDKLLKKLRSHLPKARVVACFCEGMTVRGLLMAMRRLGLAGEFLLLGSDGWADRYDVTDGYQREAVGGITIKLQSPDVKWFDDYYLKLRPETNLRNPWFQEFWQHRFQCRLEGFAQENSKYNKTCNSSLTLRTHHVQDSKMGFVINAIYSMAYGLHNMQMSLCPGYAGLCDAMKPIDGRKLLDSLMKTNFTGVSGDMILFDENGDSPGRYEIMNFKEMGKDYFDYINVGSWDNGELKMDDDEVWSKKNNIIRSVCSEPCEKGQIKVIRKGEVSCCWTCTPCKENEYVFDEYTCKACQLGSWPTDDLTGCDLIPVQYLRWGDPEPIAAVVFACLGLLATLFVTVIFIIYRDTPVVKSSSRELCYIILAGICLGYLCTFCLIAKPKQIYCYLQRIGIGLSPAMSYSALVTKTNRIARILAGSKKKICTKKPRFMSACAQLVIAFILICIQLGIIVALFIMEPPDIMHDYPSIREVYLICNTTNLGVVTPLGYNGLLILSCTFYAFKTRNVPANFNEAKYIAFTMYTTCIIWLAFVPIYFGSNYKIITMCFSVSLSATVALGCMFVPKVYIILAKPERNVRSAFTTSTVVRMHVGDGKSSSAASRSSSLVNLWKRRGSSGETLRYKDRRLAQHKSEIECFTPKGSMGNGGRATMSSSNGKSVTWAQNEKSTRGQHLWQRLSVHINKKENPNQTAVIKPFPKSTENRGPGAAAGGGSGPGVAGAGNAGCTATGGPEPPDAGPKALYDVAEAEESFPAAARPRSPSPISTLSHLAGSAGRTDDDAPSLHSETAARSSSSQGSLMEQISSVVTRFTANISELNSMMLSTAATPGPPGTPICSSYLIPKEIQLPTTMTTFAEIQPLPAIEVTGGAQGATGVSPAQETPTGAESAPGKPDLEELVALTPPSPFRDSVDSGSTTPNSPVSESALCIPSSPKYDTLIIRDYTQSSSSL
UniProt P23385: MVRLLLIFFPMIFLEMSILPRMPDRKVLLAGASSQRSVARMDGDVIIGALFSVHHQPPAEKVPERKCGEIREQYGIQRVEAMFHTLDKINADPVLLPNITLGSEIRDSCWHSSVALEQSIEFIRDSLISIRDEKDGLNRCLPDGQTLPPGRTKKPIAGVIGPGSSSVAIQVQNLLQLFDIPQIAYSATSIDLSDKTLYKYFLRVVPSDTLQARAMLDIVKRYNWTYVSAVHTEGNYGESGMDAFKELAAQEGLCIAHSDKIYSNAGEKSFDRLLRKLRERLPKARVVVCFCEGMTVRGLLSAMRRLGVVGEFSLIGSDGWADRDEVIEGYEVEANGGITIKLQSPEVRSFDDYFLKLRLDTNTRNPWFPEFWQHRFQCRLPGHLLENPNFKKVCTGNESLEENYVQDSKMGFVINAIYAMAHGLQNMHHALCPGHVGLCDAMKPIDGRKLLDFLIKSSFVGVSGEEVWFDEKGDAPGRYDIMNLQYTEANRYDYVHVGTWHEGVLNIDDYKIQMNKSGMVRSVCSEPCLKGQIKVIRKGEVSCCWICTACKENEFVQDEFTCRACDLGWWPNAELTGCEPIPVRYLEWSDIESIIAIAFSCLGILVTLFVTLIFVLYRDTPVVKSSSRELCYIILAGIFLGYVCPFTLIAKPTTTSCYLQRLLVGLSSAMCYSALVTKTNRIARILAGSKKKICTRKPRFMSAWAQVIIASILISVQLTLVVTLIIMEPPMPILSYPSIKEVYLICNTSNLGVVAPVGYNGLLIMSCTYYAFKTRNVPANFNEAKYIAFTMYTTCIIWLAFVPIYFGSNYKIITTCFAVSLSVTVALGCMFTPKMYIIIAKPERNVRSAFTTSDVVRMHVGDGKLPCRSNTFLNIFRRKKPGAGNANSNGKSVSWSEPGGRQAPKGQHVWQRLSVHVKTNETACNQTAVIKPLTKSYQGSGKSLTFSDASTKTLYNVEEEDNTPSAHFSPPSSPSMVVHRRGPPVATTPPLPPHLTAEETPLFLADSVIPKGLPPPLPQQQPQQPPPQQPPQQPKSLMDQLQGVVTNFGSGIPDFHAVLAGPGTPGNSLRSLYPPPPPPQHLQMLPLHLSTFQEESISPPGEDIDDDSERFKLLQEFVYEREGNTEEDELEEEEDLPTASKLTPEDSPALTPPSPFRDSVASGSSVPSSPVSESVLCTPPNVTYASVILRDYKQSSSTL

According to ChEMBL document CHEMBL3784934, “N-Alkylpyrido[1',2':1,5]pyrazolo-[4,3-d]pyrimidin-4-amines: A new series of negative allosteric modulators of mGlu1/5 with CNS exposure in rodents” (Bioorg Med Chem Lett, 2016):

molecular target: Metabotropic glutamate receptor 5 (Rattus norvegicus, UniProt P31424); test: Negative allosteric modulation of rat mGluR5 expressed in HEK293 cells assessed as inhibition of glutamate induced calcium mobilization by calcium mobilization assay; type: functional, cell-based; details: read-out: IC50

Row | IC50 [nM] | Structure (SMILES)
1 | > 30000 | Cc1nc(N[C@@H]2C[C@@H]3C[C@H]([C@H]2C)C3(C)C)c2nn3ccccc3c2n1
2 | 2700 | c1ccc2c(c1)CC(Nc1ncnc3c1nn1ccccc31)C2

same assay, conditions: read-out: pIC50 (converted)

Row | IC50 [nM] | Structure (SMILES)
3 | > 31600 | Cc1nc(N[C@@H]2C[C@@H]3C[C@H]([C@H]2C)C3(C)C)c2nn3ccccc3c2n1

molecular target: Metabotropic glutamate receptor 1 (Rattus norvegicus, UniProt P23385); test: Negative allosteric modulation of rat mGluR1 expressed in HEK293 cells assessed as inhibition of glutamate induced calcium mobilization by calcium mobilization assay; type: functional, cell-based; details: not given

Row | IC50 [nM] | Structure (SMILES)
4 | 462 | C[C@@H](Nc1ncnc2c1nn1ccccc21)C1CCCCC1
5 | 1610 | CC1(C)[C@@H]2CC[C@]1(C)[C@@H](Nc1ncnc3c1nn1ccccc31)C2
6 | 1800 | Cc1nc(N[C@H]2CC[C@H](C)CC2)c2nn3ccccc3c2n1
7 | 2720 | c1ccn2nc3c(NC4CCCCC4)ncnc3c2c1

The next lines start with the compound.

Row | Structure (SMILES) | IC50 [nM]
8 | C[C@@H](Nc1ncnc2c1nn1ccccc21)C(C)(C)C | 883
9 | Cc1nc(N[C@H]2C[C@H]3CC[C@@]2(C)C3(C)C)c2nn3ccccc3c2n1 | 1610
